In patent US10280229B2, “Linkers and their application towards ADC” (MEDSHINE DISCOVERY INC., priority 2014, dated 2019):

System: breast cancer cell line HCC1954
Test: In vitro cytotoxicity study, breast cancer cell line HCC1954 (Cell Titer-Glo, 72 hours)
Assay type: cell-based
Settings: HCC1954, 72 hours treatment, 0.00015-1 μg/ml; study ADC compared with control ADC-HA
Procedure: Breast cancer cell line HCC1954 was grown in RPM11640 medium supplemented with 10% fetal bovine serum and maintained in an atmosphere of 5% CO2 in a humidified 37° C. incubator. The day before treatment, cells were collected and seeded into 96-well plates (2,000 cells per well). On the second day, cells were treated with a dilute concentration of Herceptin and ADCs of this invention (1, 0.3333, 0.1111, 0.037, 0.0123, 0.0041, 0.0014, 0.00046 and 0.00015 μg/ml). Each treatment was performed in triplicate. After 72 hours treatment, cell viability was assessed by Cell Titer-Glo kit (Promega) according to the manufacturer's instruction.

Substance: Herceptin
- antiproliferative activity: inhibition on the growth of breast cancer cell line HCC1954 in vitro: ineffective
